Reference: PubChem BioAssay AID2052 (NMMLSC, 2009)
Only a part is listed here, and it is no random draw. Activity calls are given as the source filed them.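 How the source made its calls: active means response, share of CD8 T cells binding vesicles, and their 90th percentile fluorescence all below set limits (cut at about 80% in these data, passing the limit was not always enough); inactive means the rest, inconclusive results apart.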

Test: murine CD8 T cell vesicle adhesion modulation – mouse 2C CD8+ T cells, flow cytometry, primary screen (AID 2052);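 further: values below 100% mean blocked vesicle binding to the CD8+ T cells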
Conditions: 2C CD8+ T cell-vesicle binding, at 7 µM, hits give low values
How it was run: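 Test system: purified 2C TCR transgenic mouse naive CD8+ T cells. Probe or stimulus: QL9-peptide-loaded Drosophila micro-vesicles bearing Ld, ICAM-1 and B7-1. Incubation: binding step 1.5 h, 37 °C, antibody labelling 20 min, ice. Measured by: flow cytometry of vesicle-bound cells.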

**Q.** For CCc1cc(C(=O)NCC2(N3CCCCC3)CCCCC2)sc1C, which response (vesicle binding) is on record?
**A.** inactive: 304%

**Q.** For O=C(OC1CN2CCC1CC2)C1c2ccccc2C=Cc2ccccc21 (stereo unspecified), which response (vesicle binding) is on record?
**A.** inactive: 282%

**Q.** Which response (vesicle binding) does the source give for N/C(=N\O)c1c(N)no[n+]1[O-] here?
**A.** inactive: 133%

**Q.** For CCOC(=O)N1CCC(Nc2ccc(C)cc2)CC1, which response (vesicle binding) is on record?
**A.** inactive: 218%

**Q.** With COc1ccc(C(=O)NCC2(N3CCOCC3)CCCCC2)cc1OC as the molecule, how does the response (vesicle binding) read?
**A.** inactive: 510%

**Q.** Which response (vesicle binding) does the source give for O=C(NCC1(N2CCOCC2)CCCCC1)c1cc(Br)ccc1Cl here?
**A.** inactive: 303%

**Q.** With COc1cc(C(=O)NCC2(N3CCOCC3)CCCCC2)cc(OC)c1C as the molecule, how does the response (vesicle binding) read?
**A.** inactive: 318%

**Q.** With c1ccc(CN2CCC(Nc3ccccc3)CC2)cc1 as the molecule, how does the response (vesicle binding) read?
**A.** inactive: 392%

**Q.** For CCCN1CCC(Nc2cc(OC)cc(OC)c2)CC1, which response (vesicle binding) is on record?
**A.** inactive: 121%

**Q.** With CN(C)C1(CNC(=O)c2cccc(C#N)c2)CCCCC1 as the molecule, how does the response (vesicle binding) read?
**A.** inactive: 78.4%

**Q.** Which response (vesicle binding) does the source give for CC(C)(C)OC(=O)N1CCC(N(C(=O)c2ccccc2)c2ccc(Cl)cc2)CC1 here?
**A.** inactive: 202%

**Q.** With N#Cc1ccc(C(=O)NCC2(N3CCCCC3)CCCCC2)cc1 as the molecule, how does the response (vesicle binding) read?
**A.** inactive: 215%

**Q.** For O=C(NCC1(N2CCCCC2)CCCCC1)c1ccco1, which response (vesicle binding) is on record?
**A.** inactive: 312%

**Q.** Which response (vesicle binding) does the source give for CN(C)c1ccc(C(=O)NCC2(N3CCCCC3)CCCCC2)cc1 here?
**A.** inactive: 275%

**Q.** For CCN1CCC(Nc2cccc(F)c2)CC1, which response (vesicle binding) is on record?
**A.** inactive: 239%

**Q.** Which response (vesicle binding) does the source give for Cc1ccc(C(=O)NCC2(N3CCCCC3)CCCCC2)o1 here?
**A.** inactive: 256%

**Q.** For Fc1ccccc1NC1CCN(Cc2ccccc2)CC1, which response (vesicle binding) is on record?
**A.** inactive: 240%

**Q.** For COc1cc(OC)cc(C(=O)NCC2(N3CCCCC3)CCCCC2)c1, which response (vesicle binding) is on record?
**A.** inactive: 531%

**Q.** For CCCOc1ccc(C)cc1CN(CCCl)CCCl, which response (vesicle binding) is on record?
**A.** inactive: 644%

**Q.** With CN1CCC(Nc2ccc(Cl)cc2)CC1 as the molecule, how does the response (vesicle binding) read?
**A.** inactive: 238%

**Q.** For CCC(CO)(C(=O)OC1CN2CCC1CC2)c1ccccc1 (stereo unspecified), which response (vesicle binding) is on record?
**A.** inactive: 263%

**Q.** With COc1cc(OC)cc(C(=O)NCC2(N3CCOCC3)CCCCC2)c1 as the molecule, how does the response (vesicle binding) read?
**A.** inactive: 199%

**Q.** For COc1cccc(C(=O)N(c2cc(C)cc(C)c2)C2CCN(C(=O)OC(C)(C)C)CC2)c1, which response (vesicle binding) is on record?
**A.** inactive: 587%

**Q.** Which response (vesicle binding) does the source give for CCCOc1ccc(C(=O)NCC2(N(C)C)CCCCC2)cc1 here?
**A.** inactive: 229%

**Q.** Which response (vesicle binding) does the source give for CC(C)(C)OC(=O)N1CCC(Nc2ccccc2)CC1 here?
**A.** inactive: 542%

**Q.** Which response (vesicle binding) does the source give for O=C(O)C1(Nc2ccccc2)CCN(Cc2ccccc2)CC1 here?
**A.** inactive: 171%

**Q.** With CCOc1ncccc1C(=O)NCC1(N2CCOCC2)CCCCC1 as the molecule, how does the response (vesicle binding) read?
**A.** inactive: 241%

**Q.** For CN1CCC(Nc2ccc(F)c(Cl)c2)CC1, which response (vesicle binding) is on record?
**A.** inactive: 205%

**Q.** With CCOC(=O)N1CCC(Nc2ccc(OC)cc2)CC1 as the molecule, how does the response (vesicle binding) read?
**A.** inactive: 478%

**Q.** With N#CC1(Nc2ccccc2)CCN(Cc2ccccc2)CC1 as the molecule, how does the response (vesicle binding) read?
**A.** inactive: 129%

**Q.** For O=C(NCC1(N2CCCCC2)CCCCC1)c1ccc(Cl)s1, which response (vesicle binding) is on record?
**A.** inactive: 428%

**Q.** With O=C(OC1CN2CCC1CC2)C1c2ccccc2Oc2ccccc21 (stereo unspecified) as the molecule, how does the response (vesicle binding) read?
**A.** inactive: 494%

**Q.** For COc1ccc(Cl)cc1C(=O)NCC1(N2CCOCC2)CCCCC1, which response (vesicle binding) is on record?
**A.** inactive: 205%

**Q.** Which response (vesicle binding) does the source give for O=C(NCC1(N2CCOCC2)CCCCC1)c1cc2ccccc2o1 here?
**A.** inactive: 369%

**Q.** With O=C(NCC1(N2CCCCC2)CCCCC1)c1ccc(Cl)nc1 as the molecule, how does the response (vesicle binding) read?
**A.** inactive: 522%

**Q.** Which response (vesicle binding) does the source give for Cc1cc(C)cc(N(C(=O)c2ccccc2)C2CCN(C(=O)OC(C)(C)C)CC2)c1 here?
**A.** inactive: 412%

**Q.** With CSc1ccccc1C(=O)NCC1(N2CCCCC2)CCCCC1 as the molecule, how does the response (vesicle binding) read?
**A.** inactive: 341%

**Q.** Which response (vesicle binding) does the source give for O=C(NCC1(N2CCCCC2)CCCCC1)c1ccc(=O)[nH]c1 here?
**A.** inactive: 290%

**Q.** With O=C(NCC1(N2CCCCC2)CCCCC1)c1cccs1 as the molecule, how does the response (vesicle binding) read?
**A.** inactive: 342%

**Q.** With COc1ccc(C(=O)NCC2(N3CCCCC3)CCCCC2)cc1 as the molecule, how does the response (vesicle binding) read?
**A.** inactive: 492%

**Q.** Which response (vesicle binding) does the source give for COc1ccc(C(=O)NCC2(N3CCCCC3)CCCCC2)c(OC)c1OC here?
**A.** inactive: 472%

**Q.** With CC(C)(C)OC(=O)N1CCC(N(C(=O)c2ccccc2)c2ccc(F)cc2)CC1 as the molecule, how does the response (vesicle binding) read?
**A.** inactive: 226%

**Q.** For CCOC(=O)N1CCC(Nc2cccc(C)c2)CC1, which response (vesicle binding) is on record?
**A.** inactive: 234%

**Q.** Which response (vesicle binding) does the source give for COc1cc(C(=O)NCC2(N(C)C)CCCCC2)ccc1OC(F)F here?
**A.** inactive: 183%

**Q.** Which response (vesicle binding) does the source give for Cc1ccc(OCC(C)C)c(CN(CCCl)CCCl)c1 here?
**A.** inactive: 248%

**Q.** Which response (vesicle binding) does the source give for O=C(NCC1(N2CCCCC2)CCCCC1)c1ccc(F)cc1 here?
**A.** inactive: 177%

**Q.** With COc1ccc(NC2CCN(CCc3ccccc3)CC2)c(OC)c1 as the molecule, how does the response (vesicle binding) read?
**A.** inactive: 609%

**Q.** With CCOC(=O)N1CCC(Nc2ccc(F)cc2)CC1 as the molecule, how does the response (vesicle binding) read?
**A.** inactive: 164%

**Q.** For CCOc1ccc(C)cc1CN(CCCl)CCCl, which response (vesicle binding) is on record?
**A.** inactive: 486%

**Q.** Which response (vesicle binding) does the source give for CN1CCN(CCOC(=O)C(O)(c2ccccc2)c2ccccc2)CC1 here?
**A.** inactive: 420%

**Q.** Which response (vesicle binding) does the source give for COc1ccc(NC2CCN(C(=O)OC(C)(C)C)CC2)cc1 here?
**A.** inactive: 487%

**Q.** Which response (vesicle binding) does the source give for COc1cc(C(=O)NCC2(N3CCCCC3)CCCCC2)ccc1OC(F)F here?
**A.** inactive: 491%

**Q.** With O=C(NCC1(N2CCOCC2)CCCCC1)c1cc(=O)[nH]c2ccccc12 as the molecule, how does the response (vesicle binding) read?
**A.** inactive: 226%

**Q.** Which response (vesicle binding) does the source give for O=C(NCC1(N2CCCCC2)CCCCC1)c1cccc(C(F)(F)F)c1 here?
**A.** inactive: 293%

**Q.** With O=C(NCC1(N2CCCCC2)CCCCC1)c1cccc([N+](=O)[O-])c1 as the molecule, how does the response (vesicle binding) read?
**A.** inactive: 524%

**Q.** With CCN1CCC(Nc2ccc(Cl)cc2)CC1 as the molecule, how does the response (vesicle binding) read?
**A.** inactive: 264%

**Q.** Which response (vesicle binding) does the source give for N#CC1(Nc2ccccc2)CCN(CCc2ccccc2)CC1 here?
**A.** inactive: 406%

**Q.** With O=C(NCC1(N2CCCCC2)CCCCC1)c1ccc(OC(F)F)cc1 as the molecule, how does the response (vesicle binding) read?
**A.** inactive: 458%

**Q.** For CCCOc1ccc(C(=O)NCC2(N(C)C)CCCCC2)cc1OC, which response (vesicle binding) is on record?
**A.** inactive: 185%

**Q.** With CN1CCC(Nc2cccc(F)c2)CC1 as the molecule, how does the response (vesicle binding) read?
**A.** inactive: 381%

**Q.** With O=C(NCC1(N2CCCCC2)CCCCC1)c1cncc(Br)c1 as the molecule, how does the response (vesicle binding) read?
**A.** inactive: 318%

**Q.** For COc1cc(OC)c(C(=O)NCC2(N(C)C)CCCCC2)cc1OC, which response (vesicle binding) is on record?
**A.** inactive: 37.8%

**Q.** For O=C(NCC1(N2CCOCC2)CCCCC1)c1cc(F)c(F)cc1Cl, which response (vesicle binding) is on record?
**A.** inactive: 239%

**Q.** Which response (vesicle binding) does the source give for COc1ccc(CN(CCCl)CCCl)cc1Cl here?
**A.** inactive: 191%

**Q.** With CN(C)c1cccc(C(=O)NCC2(N3CCCCC3)CCCCC2)c1 as the molecule, how does the response (vesicle binding) read?
**A.** inactive: 292%

**Q.** Which response (vesicle binding) does the source give for CC(C)c1ccc(NC2CCN(C(=O)OC(C)(C)C)CC2)cc1 here?
**A.** inactive: 968%
